The experiment concerns the target S1P1 (EDG-1) (Homo sapiens, UniProt P21453). In words: GPCR activation assay measuring GTP [γ-35S] binding to membranes from CHO cells expressing human EDG receptors (S1P1). The following applies: read-out: S1P-1 EC50, CHO cell membranes expressing human EDG-1. The method, then:
A.1 In Vitro: GPCR Activation Assay Measuring GTP [γ-^35S] Binding to Membranes Prepared From CHO Cells Expressing Human EDG Receptors
S1P1 (EDG-1) GTP [γ-^35S] binding assay: Homogenized membranes are prepared from CHO cell clones stably expressing a human EDG-1 N-terminal c-myc tag. Cells are grown in suspension in two 850 cm^2 roller bottles for three or fours days before harvesting. The cells are centrifuged down, washed once with cold PBS, and resuspended in ≦20 ml of Buffer A (20 mM HEPES, pH 7.4, 10 mM EDTA, EDTA-free complete protease inhibitor cocktail [1 tablet/25 ml]). The cell suspension is homogenized on ice, using a Polytron homogenizer at 30000 rpm at three intervals of 15 seconds each. The homogenate is first centrifuged at 2000 rpm on a tabletop low speed centrifuge for 10 minutes. The supernatant, after passing through a cell strainer, is then re-centrifuged at 50,000×g for 25 minutes at 4° C. The pellet is resuspended into buffer B (15% glycerol, 20 mM HEPES, pH 7.4, 0.1 mM EDTA, EDTA-free complete protease inhibitor cocktail [1 tablet/10 ml]). Protein concentration of the preparation is determined using the BCA Protein Assay kit (Pierce) using BSA as standard. The membranes are aliquoted and kept frozen at −80° C.
Solutions of test compounds ranging from 10 mM to 0.01 nM are prepared in DMSO. S1P is diluted in 4% BSA solution as positive controls. […]

Protein sequences, listed by entry. Tags and fused reporters are not part of them.
UniProt P21453, whole entry: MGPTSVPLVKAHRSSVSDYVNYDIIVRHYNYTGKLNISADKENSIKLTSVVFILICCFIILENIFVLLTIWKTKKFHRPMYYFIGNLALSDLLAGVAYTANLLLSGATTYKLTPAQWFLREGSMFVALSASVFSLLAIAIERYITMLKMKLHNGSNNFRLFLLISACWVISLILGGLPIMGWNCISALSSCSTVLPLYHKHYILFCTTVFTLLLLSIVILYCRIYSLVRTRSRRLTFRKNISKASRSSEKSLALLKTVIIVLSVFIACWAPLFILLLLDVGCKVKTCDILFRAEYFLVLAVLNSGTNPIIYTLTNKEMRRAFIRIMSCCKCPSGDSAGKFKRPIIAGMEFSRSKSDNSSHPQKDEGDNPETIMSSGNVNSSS

From patent US20100144729A1, “COUMARIN DERIVATIVES” (priority 2007, published 2010) come the findings set out here.

For orientation: EC50 means the midpoint of the concentration-response curve.

As for `CCCc1c(OC)ccc2cc(C(=O)Nc3ccc(C4CCCN4)cc3)c(=O)oc12` (stereo not shown) [Example 1, 7-Methoxy-2-oxo-8-propyl-2H-chromene-3-carboxylic acid (4-pyrrolidin-2-yl-phenyl)-amide], the EC50 worked out at 1.6 nM.
